Molecular target: T1, Sco GlgEI (Streptomyces coelicolor, UniProt Q9L1K2, V279S)
T1 construct: gene glgE1
Test: X-ray crystal structure, […] Å co-crystal
Conditions: 18 mM ligand; pH 7.0 sodium citrate; M1P donor site (-1/-2 subsites and phosphate site)

The chains behind the UniProt entries cited, without tags or fusion partners.
UniProt Q9L1K2, whole entry V279S: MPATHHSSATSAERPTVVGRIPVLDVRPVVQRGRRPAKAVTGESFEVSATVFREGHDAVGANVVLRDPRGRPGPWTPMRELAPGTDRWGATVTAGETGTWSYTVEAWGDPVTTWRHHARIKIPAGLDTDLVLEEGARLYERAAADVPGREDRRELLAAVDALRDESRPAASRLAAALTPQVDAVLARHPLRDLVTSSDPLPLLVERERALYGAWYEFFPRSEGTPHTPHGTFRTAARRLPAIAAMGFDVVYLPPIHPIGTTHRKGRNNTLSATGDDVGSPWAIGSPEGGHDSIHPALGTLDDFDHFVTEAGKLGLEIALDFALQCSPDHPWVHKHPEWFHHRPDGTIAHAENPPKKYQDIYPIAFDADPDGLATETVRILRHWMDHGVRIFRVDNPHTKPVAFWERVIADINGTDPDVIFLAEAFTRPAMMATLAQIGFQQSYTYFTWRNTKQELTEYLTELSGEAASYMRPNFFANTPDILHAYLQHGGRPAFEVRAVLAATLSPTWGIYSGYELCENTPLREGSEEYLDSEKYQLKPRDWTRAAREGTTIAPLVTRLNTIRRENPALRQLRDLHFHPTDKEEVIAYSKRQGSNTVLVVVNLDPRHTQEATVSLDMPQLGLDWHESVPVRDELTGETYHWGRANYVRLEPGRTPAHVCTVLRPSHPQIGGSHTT

O=P(O)(O)C[C@H]1O[C@H](CO)[C@@H](O[C@H]2O[C@H](CO)[C@@H](O)[C@H](O)[C@H]2O)[C@H](O)[C@H]1O [MCP, α-maltose-C-phosphonate]
X-ray crystal structure, 1.9 Å co-crystal: This compound was co-crystallized with the Sco GlgEI-V279S to characterize the molecular basis of this inhibition

— PMC4526890, “Crystal structures of Mycobacterium tuberculosis GlgE and complexes with non-covalent inhibitors” (Scientific Reports, 2015)
